Compound activity (PubChem)
In the library only some 2.1% were active in any assay of this set; here they are far more common.
PDI inh: blocks human protein disulfide isomerase activity | actives 0.052% (n = 350,000) | inhibition, % at 10 µM | AID 588391 | PDI insulin aggregation turbidity, A650, 90 min | P07237;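 active = mean inhibition across replicates of 30% or more, whatever share of single replicates reach that level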
SMARCA2 activ: activators of SMARCA2 function; activation, % at 9.1 µM; AID 652017; actives 1% (n = 370,000); MG213 cells, MMTV-luciferase reporter, dexamethasone, overnight; in the data active = activation above about 7.8%;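 also: 0% = vehicle wells and 100% = reference activator wells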
ERp5 block: inhibitors of human ERp5; inhibition, % at 9.99 µM; actives 0.05% (n = 350,000); ERp5 insulin aggregation, absorbance 650 nm, 90 min; Q15084;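 active = mean replicate inhibition above about 25%, with every replicate also reaching it, limit read from the data, passing the limit was not always enough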
Rev-erbA mod: modulators of human Rev-erb alpha DNA binding | P20393 | Rev-erbα–FITC-DNA binding, fluorescence polarization, 90 min | activity, % at 10 µM | actives 0.79% (n = 370,000);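 active = activity above about 14%, limit read from the data; passing the limit was not always enough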;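 also: 0% = DMSO wells with 35 nM protein and 100% = DMSO wells with 750 nM protein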
UUG fidelity: modulators of yeast start codon fidelity, primary screen, whole organism, S. cerevisiae, single point, plate reader; S. cerevisiae UUG-firefly luciferase reporter, luminescence/redox ratio; activity score, % at 18.7 µM; 0.13% of 350,000 active; AID 602363, 2012;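 active = replicate mean at a twofold rise or more, about +100% in these data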;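 also: firefly luciferase made from a UUG start codon reports start codon fidelity; reporter light over untreated wells divided by growth signal over untreated wells; some hits fall short of that in this replicate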
GSIS activator: GLuc luminescence reporter in INS-1E cells, primary screen for activators of glucose-dependent secretion of insulin | INS-1E GLuc reporter insulin secretion, 2-3 h | activation, % at 16.6 µM | actives 0.61% (n = 370,000) | AID 743287;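 active = lowest replicate activation of at least 40%, so every replicate reaches that level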;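 also: 0% = median of neutral control wells and 100% = median of IBMX positive control wells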
Rev-erbA confirm: confirmation of modulators of human Rev-erb alpha DNA binding; shares compounds with Rev-erbA mod; Rev-erb alpha FITC-DNA binding, fluorescence polarization, 90 min; activation, % at 25 µM; actives 61% (n = 3,000);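 active = activation at or above a set limit, or at least 3 SD above the negative control mean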;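 also: 0% = 35 nM protein with DMSO and 100% = 750 nM protein high control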
RORg DNA counter: counter-screen for Rev-erb alpha modulators: RORgamma DNA binding | shares compounds with Rev-erbA mod | purified RORgamma protein-FITC-DNA binding, fluorescence polarization | IC50, µM | actives 8% (n = 910) | AID 1259320;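 active = Compounds whose fitted half-maximal concentration for disrupting protein-DNA binding is below 10 micromolar; the record names Rev-erb in its text, so the target is in doubt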
* marks the source's active call; other numbers are inactive results; nt = not tested or not shown.

Start of the data: the first four entries, to show the layout:
SMILES	PDI inh	SMARCA2 activ	ERp5 block	Rev-erbA mod	UUG fidelity	GSIS activator	Rev-erbA confirm	others
CC(NC(=O)c1ccc(N(C)C)cc1)C1CC2CCC1C2 (stereo not drawn)	-72.6	-2.6	nt	31.5*	-21.1	-0.8	18.3*
COc1ccc(C(=O)NC(C)C2CC3CCC2C3)cc1 (stereo not drawn)	-3.4	4.5	5.3	0.6	-25.4	-5.5	nt
Cc1cccc(NC(=O)CN(C)C(=O)c2ccc(N3CCCCCC3)c([N+](=O)[O-])c2)c1C	2.9	3.4	0.4	17.2*	-1.4	nt	-4.5
CN1CCN(c2ccccc2NC(=O)c2ccc(N3CCCC3)c([N+](=O)[O-])c2)CC1	-6.2	3.9	1.9	16.1*	-4.2	7.1	8.8

All compounds of this part, from the start:
SMILES	PDI inh	SMARCA2 activ	ERp5 block	Rev-erbA mod	UUG fidelity	GSIS activator	Rev-erbA confirm	others
CC(NC(=O)c1ccc(N(C)C)cc1)C1CC2CCC1C2 (stereo not drawn)	-72.6	-2.6	nt	31.5*	-21.1	-0.8	18.3*
COc1ccc(C(=O)NC(C)C2CC3CCC2C3)cc1 (stereo not drawn)	-3.4	4.5	5.3	0.6	-25.4	-5.5	nt
Cc1cccc(NC(=O)CN(C)C(=O)c2ccc(N3CCCCCC3)c([N+](=O)[O-])c2)c1C	2.9	3.4	0.4	17.2*	-1.4	nt	-4.5
CN1CCN(c2ccccc2NC(=O)c2ccc(N3CCCC3)c([N+](=O)[O-])c2)CC1	-6.2	3.9	1.9	16.1*	-4.2	7.1	8.8
COc1ccc(NC(=O)Nc2ccc3c(c2)CC(=O)N([C@@H](C)CO)C[C@H](C)[C@@H](CN(C)C)O3)cc1	nt	nt	4.8	nt	12.1	9.1	nt
Cc1ccc2nc(NC(=O)c3ccc(OCC4CCCO4)cc3)sc2c1 (stereo not drawn)	-1.2	0.2	-0.3	31.2*	nt	-2.6	14.4
CS(=O)(=O)c1ccc2nc(NC(=O)c3ccc(Cl)cc3)sc2c1	4.2	0.4	1.0	37.5*	-22.9	-10.1	17.1
COc1ccc(C(=O)Nc2nc3ccc(OC)cc3s2)cc1	0.3	3.8	6.2	10.8	6.1	-5.2	nt
CS(=O)(=O)c1ccc2nc(NC(=O)c3cccc(Cl)c3)sc2c1	1.8	1.8	0.9	0.4	-5.7	6.2	nt
COc1ccc(C(=O)Nc2nc3ccc(S(C)(=O)=O)cc3s2)cc1	-2.9	-2.8	nt	26.9*	-9.1	nt	10.8
COc1ccccc1-c1ccc([C@@H]2[C@H](C#N)N[C@@H]2CO)cc1	nt	nt	2.6	nt	nt	11.5	nt
COc1ccc(C(=O)N2CCCC(CCC(=O)NCc3ccc(F)c(F)c3)C2)o1 (stereo not drawn)	4.6	-0.8	0.7	14.8*	-2.7	-16.9	-1.7
COc1ccc(C(=O)N2CCCC(CCC(=O)NCc3ccc(F)c(F)c3)C2)cc1F (stereo not drawn)	-7.8	-1.8	3.3	1.8	nt	-42.6	nt
Cc1c(N2C(=O)/C(=C\c3ccc(N(C)C)cc3)N(C)C2=S)c(=O)n(-c2ccccc2)n1C	-16.3	-1.5	nt	25.4*	nt	-33.0	20.4*
CN1C(=S)N(c2cccnc2)C(=O)/C1=C\c1ccc(N(C)C)cc1	1.6	-6.5	0.0	7.1	-23.3	-6.5	nt
C[C@H]1CN([C@@H](C)CO)C(=O)c2cccc(NC(=O)C3CCCCC3)c2O[C@@H]1CN(C)C(=O)Nc1ccc2c(c1)OCO2	nt	nt	1.2	nt	-0.3	12.2	nt
Cc1cc(C)c2c(=O)[nH]c(SCC(=O)c3ccc(F)c(C)c3)nc2n1	-12.5	-2.2	-0.2	35.4*	nt	3.8	24.2*
Cc1cc(C(=O)CSc2nc(N)cc(=O)[nH]2)ccc1F	-3.6	-1.1	6.6	-1.2	-17.0	-15.6	nt
CCOc1nc(-c2ccc(OC)cc2)ccc1-c1noc(-c2ccncc2)n1	8.0	-0.3	nt	-1.5	-8.3	20.6	nt
CCOc1nc(-c2ccccc2)ccc1-c1noc(-c2cccs2)n1	-7.7	-3.6	nt	39.5*	-19.1	nt	14.5
CCOc1nc(-c2ccccc2)ccc1-c1noc(-c2ccncc2)n1	-0.6	-2.9	nt	29.3*	nt	nt	23.7*
COc1cccc(-c2ccc(-c3noc(-c4cccs4)n3)c(OC)n2)c1	-0.3	1.5	nt	12.1	nt	nt	nt
O=C(c1ccc(F)cc1)c1ccc(-c2ccc(F)cc2)nc1	16.0	0.1	-0.5	27.5*	-9.4	11.1	12.1
COc1ccc(C(=O)c2ccc(-c3ccc(OC)cc3)nc2)cc1	12.5	-1.6	4.3	17.9	1.5	4.7	nt
CCc1ccc(NC(=O)CSc2nnc(-c3n[nH]c4ccccc34)n2-c2ccccc2)cc1	5.3	-4.0	nt	33.8*	nt	9.0	38.1*	RORg DNA counter=>40
Cc1ccccc1NC(=O)CSc1nnc(-c2ccccc2)n1-c1ccccc1	3.5	0.9	nt	37.4*	1.1	nt	20.7*
